Test results reported in patent US8198335B2, “Cosmetic material” (Parahermosa Co., Ltd., priority 2009, dated 2012).

Assay: Check for precipitation of crystal in 1:1 mixtures of oil solution and diethyl amino hydroxy benzoyl hexyl benzoate kept at 5° C.
Format: physicochemical
Set-up: key: X: Evaluation results accompanied by an x in Table 2 indicate that crystal had precipitated at the applicable point in time
Details: 1:1 by mass with diethyl amino hydroxy benzoyl hexyl benzoate, checked after one week
Excerpt: Evaluation results accompanied by an x in Table 2 indicate that crystal had precipitated at the applicable point in time.

Substance: Butylene glycol di (capryl/caprate) [Component 54]
- Evaluation results 1 week: X
